From patent US20230071840A1, “HETEROCYCLIC GLP-1 AGONISTS” (Gasherbrum Bio, Inc., priority 2020, published 2023)

Chains of the proteins cited; added tags and fusions are not shown. Residues count along the entry.
UniProt P43220, 24-463 limits assumed: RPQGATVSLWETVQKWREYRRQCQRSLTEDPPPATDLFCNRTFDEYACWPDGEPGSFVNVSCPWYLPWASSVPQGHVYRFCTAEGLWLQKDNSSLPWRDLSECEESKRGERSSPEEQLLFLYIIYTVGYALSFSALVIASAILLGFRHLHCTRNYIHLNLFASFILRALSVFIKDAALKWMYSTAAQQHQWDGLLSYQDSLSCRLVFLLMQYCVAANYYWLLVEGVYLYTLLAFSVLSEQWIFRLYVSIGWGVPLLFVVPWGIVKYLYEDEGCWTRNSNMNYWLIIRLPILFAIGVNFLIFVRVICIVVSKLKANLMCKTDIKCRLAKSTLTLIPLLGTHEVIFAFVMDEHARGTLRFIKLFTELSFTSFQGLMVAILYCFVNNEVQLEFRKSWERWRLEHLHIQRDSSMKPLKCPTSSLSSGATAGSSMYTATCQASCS

Target: GLP-1 Receptor (Homo sapiens, UniProt P43220)
Assay: GLP-1R agonist cAMP stimulation assay (HEK293/GLP1R/CRE-LUC cells, cAMP dynamic 2 kit)
Assay type: cell-based
Settings: HEK293/CRE-Luc cell line stably expressing the GLP-1 Receptor; 30 min incubation at 37° C.

## O=C(O)c1ccc2nc(CN3CCC(c4c[nH]c5ccc(Cc6ccc(Cl)cc6F)nc45)CC3)n(C[C@@H]3CCO3)c2n1
  GLP1R cAMP Stimulation DR: pEC50: 8.3
